Here are results for seven molecules from PubChem BioAssay AID641 (Vanderbilt High Throughput Screening Facility, 2007).

Chains of the proteins cited; added tags and fusions are not shown.
UniProt P21728, whole entry: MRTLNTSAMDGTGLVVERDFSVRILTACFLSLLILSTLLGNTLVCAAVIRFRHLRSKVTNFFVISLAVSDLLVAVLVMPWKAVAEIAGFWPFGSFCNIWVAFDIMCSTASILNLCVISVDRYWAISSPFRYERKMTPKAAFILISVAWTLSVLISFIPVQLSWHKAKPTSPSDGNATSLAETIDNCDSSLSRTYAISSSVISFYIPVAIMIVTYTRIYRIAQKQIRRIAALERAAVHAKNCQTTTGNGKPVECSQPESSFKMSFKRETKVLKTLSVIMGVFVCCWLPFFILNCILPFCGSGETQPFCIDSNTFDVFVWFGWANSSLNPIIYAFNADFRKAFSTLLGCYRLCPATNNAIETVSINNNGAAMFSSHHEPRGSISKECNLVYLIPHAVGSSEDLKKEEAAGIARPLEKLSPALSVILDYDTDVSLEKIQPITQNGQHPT

The list shows a part of the results, in another mix than the full data. Calls of active or inactive are those of the source.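 The calls were made as follows: active = luminescence count or its row- and column-corrected plate score outside the 99.7% band of the plate's sample wells, on either side; inactive = the rest.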

The assay has as its target D(1A) dopamine receptor (Homo sapiens) (UniProt P21728). Briefly: D1 CRE-luciferase signal change, two-sided – cell-based, HEK293 D1, dopamine EC30, D1 allosteric modulator project, primary screen (AID 641). The conditions noted are these: dopamine EC30 potentiation, at 10 µM, actives deviate in either direction.
For `N#CC1(Nc2ccccc2)CCN(CCc2ccccc2)CC1`, the B-score was inactive: 0.0197.

As for `COc1ccc(NC2CCN(CCc3ccccc3)CC2)c(OC)c1`, the B-score was inactive: -3.02.

Turning to `O=C(OC1CN2CCC1CC2)C1c2ccccc2Oc2ccccc21` (configuration not stated), the B-score was inactive: -0.0349.

`CCC(CO)(C(=O)OC1CN2CCC1CC2)c1ccccc1` (configuration not stated): the B-score is inactive: -0.0733.

Consider `CCOc1ncccc1C(=O)NCC1(N2CCOCC2)CCCCC1`, for which the B-score is active: 16.9.

Turning to `Fc1ccccc1NC1CCN(Cc2ccccc2)CC1`, the B-score was active: -3.44.

Take `N/C(=N\O)c1c(N)no[n+]1[O-]`: the B-score is inactive: 0.0843.
